Most compounds without a hit are left out; they make up all but 2.1% or so of the library.
PTAP TSG101 blk = blocks PTAP/TSG101 interaction to inhibit HIV-1 budding; 340,000 tested, under 10 active; AID 493005; Potency, µM (series often up to 115 µM), for inactives: at the highest dose activity change, negative = inhibition, actives largely listed as inhibitors; Fluorescence polarization, FITC-PTAP peptide / Tsg101 binding; active means well fitted inhibition curve with a large enough effect in the main read-out, with a control signal flat, not every such curve was filed as active; inconclusive means small, poorly fitted or top-dose-only effect, or effect the other way, or a change in a side signal; inactive means no such curve, though single readings can be large or run the other way; further: potency means the concentration at half of the fitted maximal effect; % of control where 0% means no effect
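FP read-out: FITC-PTAP peptide, 50 nM final, binding Tsg101 binding domain, 10 uM final; 20 min, r.t.; 10 mM HEPES pH 7.5, 0.15 M NaCl, 0.01% Tween 20, 3 mM EDTA, 0.1 mM TCEP.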
Nrf2 activator = activators of Nrf2 (ARE) signaling. AREc32 ARE-luciferase reporter (MCF7-derived line), luminescence, 24 h. Potency, µM (doses to about 46.1 µM), for inactives: top-dose activation, usual class: activators. 410,000 compounds, 0.31% hits. AID 624171; further: potency means the concentration at half of the fitted maximal effect; % of control where 0% means no effect; nearly all actives have a fitted effect of over 65% in size
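ARE activation measured as luciferase luminescence (Steady-Glo, 30 min RT) in AREc32_Fluc cells after 24 hr compound exposure at 37 deg C, 5% CO2; cells seeded overnight at 1000/well in OPTI-MEM, 5% FBS.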
Nrf2 inh = inhibitors of Nrf2 signaling; 360,000 compounds, 2.1% hits; Potency, µM (top dose mostly 46 µM), inactives show top-dose activity change, negative = inhibition, actives largely listed as inhibitors; A549 ARE-Fluc reporter, luciferase luminescence, 18-24 h; further: potency means the concentration at half of the fitted maximal effect; on the % scale 0 is the no-effect control and ±100 the full control effect; nearly all actives have a fitted effect of over 60% in size
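A549 ARE_Fluc cells (5000/well, 5% FBS OPTI-MEM) pre-incubated 2 h, then treated with compounds 18-24 h at 37C/5% CO2 in concentration-response. CellTiter-Fluor viability read first; BugLite luciferase luminescence after 15 min at room temperature gives Nrf2 activity.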
A549 tox = kills or reduces viability of A549 cells in Nrf2 counter-screen. A549 ARE-Fluc cells, CellTiter-Fluor viability, 18-24 h. Potency, µM (doses to about 46 µM), without a hit: top-dose activity change, negative = cytotoxicity, actives largely listed as inhibitors. 390,000 compounds, 0.16% hits. AID 504648; further: potency means the concentration at half of the fitted maximal effect; on the % scale 0 is the no-effect control and ±100 the full control effect
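Cytotoxicity counterscreen: CellTiter-Fluor fluorescence was measured in A549 ARE_Fluc cells after 18-24 h of compound exposure in a concentration series. The subsequent BugLite luminescent read reports ARE-luciferase activity.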
miR-21 reporter = miR-21 reporter, rising signal | AID 2288 | HeLa miR-21 FLuc reporter, luciferase, 48 h | 340,000 tested, under 10 active | Potency, µM (titrated, usually from 38.3 µM), for the others: at the top dose reporter change, positive = more light; active = well fitted rising curve with a large enough effect; inconclusive = small, poorly fitted or top-dose-only effect; inactive = no such curve, though single readings can be large or run the other way;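 also: % of control where 0% means no effect; miR-21 action dims this reporter so a rising signal means less miR-21 action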
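HeLa cells endogenously expressing miR-21, stably carrying CMV-driven firefly luciferase with a downstream miR-21 binding site, 2000 cells/well. Titrations up to approximately 40 uM, 48 hours; luciferase luminescence read.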
GRP78 ERSR act = induces the endoplasmic reticulum stress response in human glioma cells. 420,000 compounds, 0.02% hits. Potency, µM, for inactives: top-dose activation, hits mostly activators. AID 602332. U87-MG GRP78 promoter luciferase reporter, 16 h; further: potency means the concentration at half of the fitted maximal effect; series mostly up to about 76 µM; % of control where 0% means no effect; nearly all actives have a fitted effect of over 35% in size
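Stably transfected U87-MG human glioma cells carrying a GRP78-based luminescent sensor were seeded at 1000 cells/well, pin-dosed with compounds and incubated 16 h. Luciferase reagent was then added, and end-point luminescence was read after 10 min at room temperature.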
An asterisk follows results filed as active. Unless noted, the call rests on the fitted dose curve; in most records, active means well fitted curve in the direction sought with a large enough effect; inconclusive means small, poorly fitted or top-dose-only effect, or another doubt; inactive means no such curve, though single readings can be large; an effect the other way counts as inactive or inconclusive.

Start of the data: the first four entries, ahead of the listing:
`S=C(NCCCc1cnc[nH]1)NCCN(Cc1ccc(Cl)c(Cl)c1)c1ccc(Br)cn1` gave Nrf2 inh 11.2% and A549 tox 3.1%.
Screening NC1=C(Br)C(=O)c2ncccc2C1=O returned PTAP TSG101 blk 1.2%, Nrf2 activator -2.4%, Nrf2 inh 10.3µM*, A549 tox 16.4µM* and GRP78 ERSR act -13.8%.
Screening O=C(Cc1ccc(OCCCc2ccccc2)cc1)NO returned GRP78 ERSR act -4.6%.
Screening CC(=O)NCC(=O)NCC1Cc2cc(C)cc(-c3ccccn3)c2O1 (configuration not stated) returned GRP78 ERSR act -1.3%.

Main list, repeating the preview:
`S=C(NCCCc1cnc[nH]1)NCCN(Cc1ccc(Cl)c(Cl)c1)c1ccc(Br)cn1` gave Nrf2 inh 11.2% and A549 tox 3.1%.
Screening NC1=C(Br)C(=O)c2ncccc2C1=O returned PTAP TSG101 blk 1.2%, Nrf2 activator -2.4%, Nrf2 inh 10.3µM*, A549 tox 16.4µM* and GRP78 ERSR act -13.8%.
Screening O=C(Cc1ccc(OCCCc2ccccc2)cc1)NO returned GRP78 ERSR act -4.6%.
Screening CC(=O)NCC(=O)NCC1Cc2cc(C)cc(-c3ccccn3)c2O1 (configuration not stated) returned GRP78 ERSR act -1.3%.
Cc1ccc(NS(=O)(=O)c2cc3c(cc2N2CCC2)NC(=O)CC3)cc1C was read as Nrf2 inh inconclusive and A549 tox 9.6%.
For Nc1ccc(OC(=O)Nc2ccc(O)cc2)cc1 the results were PTAP TSG101 blk 0.0%, Nrf2 activator 9.8%, Nrf2 inh 20.6µM*, A549 tox -6.5%, miR-21 reporter 27.3% and GRP78 ERSR act -10.1%.
`CCN1CCN(Cc2ccc(NC(=O)c3ccc(C)c(NC(=O)c4cncc(-c5cccs5)c4)c3)cc2C(F)(F)F)CC1` gave PTAP TSG101 blk -2.9%, Nrf2 activator -2.8%, Nrf2 inh 8.2µM*, A549 tox inconclusive and GRP78 ERSR act -10.2%.
For CCCCCC(=O)Nc1cccc(C2=NOC3(C2)C[C@@H](C(N)=O)N(C(=O)CC(c2ccccc2)c2ccccc2)C3)c1 (some centres not stated) the results were PTAP TSG101 blk 0.8%, Nrf2 activator -3.4%, Nrf2 inh 20.6µM*, A549 tox inconclusive, miR-21 reporter inconclusive and GRP78 ERSR act 0.5%.
For CC[C@]1(O)C[C@H]2CN(CCC3=c4ccccc4=N[C]3[C@@](C(=O)OC)(c3cc4c(cc3OC)N(C)[C@H]3[C@@](O)(C(N)=O)[C@H](O)[C@]5(CC)C=CCN6CC[C@]43[C@@H]65)C2)C1 the results were GRP78 ERSR act -5.4%.
CCCNC(=O)c1cc2nc(-c3ccc(Br)cc3)cc(C(F)(F)F)n2n1 was read as Nrf2 activator 2.3%, Nrf2 inh -8.5%, A549 tox 1.5%, miR-21 reporter -14.6% and GRP78 ERSR act -0.8%.
`O=C(NCCCn1ccnc1)c1cc2nc(-c3ccc(Br)cc3)cc(C(F)(F)F)n2n1` gave PTAP TSG101 blk -12.2%, Nrf2 activator 1.9%, Nrf2 inh 20.6µM*, A549 tox inconclusive, miR-21 reporter 5.4% and GRP78 ERSR act -15.7%.
O=C(N=Nc1c(O)[nH]c2ccc(Br)cc12)c1ccco1 was read as Nrf2 activator 5.01µM* and GRP78 ERSR act 2.6%.
Screening O=C(N=Nc1c(O)[nH]c2ccc(Br)cc12)c1ccccc1-n1cccc1 returned PTAP TSG101 blk -0.7%, Nrf2 activator 6.5%, Nrf2 inh inconclusive, A549 tox inconclusive, miR-21 reporter 20.4% and GRP78 ERSR act -7.1%.
`COc1ccc(C2CC(=O)Oc3ccc(O)cc32)cc1` (configuration not stated) gave GRP78 ERSR act 0.3%.
`COc1cc(C2CC(=O)Oc3ccc(O)cc32)cc(OC)c1OC` (configuration not stated) gave GRP78 ERSR act 50.1µM*.
Screening CC1CCC2(C1)N=C(Nc1nc3ccccc3o1)NC1=C2C(=O)CCC1 (configuration not stated) returned Nrf2 inh -8.1% and A549 tox -4.4%.
`O=C(c1cccc(C(=O)N(c2ccccn2)C2CCCCC2)c1)N(c1ccccn1)C1CCCCC1` gave PTAP TSG101 blk -3.1%, Nrf2 activator 6.2%, Nrf2 inh 16.4µM*, A549 tox -15.2%, miR-21 reporter 0.1% and GRP78 ERSR act 0.4%.
For O=C(c1ccc(Cl)cc1)N(c1ccccn1)C1CCCCC1 the results were PTAP TSG101 blk -0.1%, Nrf2 activator -0.5%, Nrf2 inh 1.4%, A549 tox 0.8%, miR-21 reporter 1.1% and GRP78 ERSR act -4.0%.
`C/C=C(\C)C(=O)OC1[C@H](OC(C)=O)C2(CO)C(CC1(C)C)C1=CCC3C4(C)CCC(O[C@@H]5O[C@H](C(=O)O)[C@@H](O[C@@H]6O[C@H](CO)[C@@H](O)[C@H](O)[C@H]6O)[C@H](O)[C@H]5O[C@H]5O[C@H](CO)[C@@H](O)[C@H](O)[C@H]5O)[C@](C)(CO)C4CCC3(C)[C@]1(C)C[C@H]2O` (some centres not stated) gave PTAP TSG101 blk -11.2%, Nrf2 activator -3.2%, Nrf2 inh 18.4µM*, A549 tox inconclusive and GRP78 ERSR act -10.7%.
`CC(C)(C)OC(=O)Cc1nnc(-c2cc3ccccc3[nH]2)s1` gave Nrf2 inh inconclusive and A549 tox -1.2%.
COc1ccc(-c2cn3c(n2)sc2cc(C(=O)NCc4ccccc4)ccc23)cc1 was read as Nrf2 activator 5.6%, Nrf2 inh 6.8%, A549 tox -6.8%, miR-21 reporter -1.7% and GRP78 ERSR act -1.4%.
Screening COc1ccc2c(c1)sc1nc(-c3ccccc3)cn12 returned PTAP TSG101 blk -0.9%, Nrf2 activator -2.5%, Nrf2 inh 18.4µM*, A549 tox -6.1%, miR-21 reporter inconclusive and GRP78 ERSR act -14.4%.
For CC(C)CCC[C@@H](C)[C@H]1CC[C@H]2[C@@H]3CC=C4CC(O)CC[C@]4(C)[C@H]3CC[C@]12C (some centres not stated) the results were GRP78 ERSR act -0.3%.
Screening CN(C)/[N+]([O-])=N/Oc1ccc([N+](=O)[O-])cc1[N+](=O)[O-] returned GRP78 ERSR act -11.4%.
CC(=O)c1ccc(N2CCN(Cc3cc(=O)n4c(-c5ccccc5)csc4n3)CC2)cc1 was read as PTAP TSG101 blk -7.6%, Nrf2 activator 6.8%, Nrf2 inh inconclusive, A549 tox 1.9% and GRP78 ERSR act 0.5%.
Screening O=c1cc(CN2CCN(c3ccccc3)CC2)nc2scc(-c3ccccc3)n12 returned PTAP TSG101 blk 1.6%, Nrf2 activator 2.7%, Nrf2 inh 14.6µM*, A549 tox -6.0%, miR-21 reporter -1.9% and GRP78 ERSR act 0.7%.
Screening CCCCCCCC(=O)CC[C@H]1[C@@H](C/C=C/CCCC(=O)OC(C)C)[C@@H](O)C[C@H]1O returned GRP78 ERSR act -7.5%.
CCN(CC)c1ccc2cc(NC(=O)CCC(=O)O)c(=O)oc2c1 was read as PTAP TSG101 blk inconclusive, Nrf2 activator -2.4%, Nrf2 inh 11.6µM*, A549 tox inconclusive, miR-21 reporter inconclusive and GRP78 ERSR act -13.6%.
